Measured values: PubChem BioAssay (NCI)
The list shows a part of the results, in another mix than the full data.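 Each cell line was grown in a 96-well plate and treated with one concentration of compound for 48 hours. Values below 10 were considered active.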 The source made the active and inactive calls.

Tests used:
Test in all cases: NCI-60 one-dose screen, 48 h (100 = growth as untreated, 0 = no growth, -100 = all killed)
Details in all cases: 10 µM unless noted
[1] = tested on: NCI/ADR-RES ovarian
[2] = tested on: T-47D breast
[3] = tested on: BT-549 breast
[4] = tested on: MDA-MB-435 melanoma
[5] = tested on: SW-620 colon
[6] = tested on: MCF7 breast
[7] = tested on: HCT-116 colon
[8] = tested on: KM12 colon
[9] = tested on: HCC-2998 colon

Measured: growth

CCOP(=O)(Nc1ccc(C)cn1)OCC
inactive: [1] 109% | [2] 99.9% | [3] 117% | [4] 107% | [5] 102% | [6] 88.6% | [7] 86.6% | [8] 102%

CCN(CCCl)C1c2ccccc2-c2ccccc21
inactive: [1] 97.9% | [2] 85.8% | [4] 97.6% | [5] 96.1% | [6] 89.7% | [7] 99.7% | [9] 102% | [8] 100%

COC(=O)c1ccc(N2CCOP2(=O)Cl)cc1O (stereo unspecified)
inactive: [1] 103% | [2] 107% | [3] 83.6% | [4] 99.9% | [5] 112% | [6] 96.7% | [7] 99.4% | [8] 111%

ClP1(Cl)=NP(Cl)(Cl)=NP(Cl)(Cl)=N1
inactive: [1] 90.6% | [2] 109% | [3] 107% | [4] 102% | [5] 102% | [6] 96.8% | [7] 102% | [8] 112%

CCCC1OP(=O)(Nc2ccccc2)OCC1CC (stereo unspecified)
inactive: [1] 104% | [2] 109% | [3] 103% | [4] 110% | [5] 102% | [6] 101% | [7] 102% | [8] 109%

O=C(C(=O)c1ccc([N+](=O)[O-])cc1[N+](=O)[O-])c1ccc([N+](=O)[O-])cc1[N+](=O)[O-]
inactive: [1] 97.2% | [3] 86% | [4] 105% | [5] 115% | [6] 79.7% | [7] 86.8% | [9] 108% | [8] 103%

CCOP(=O)(Nc1ccccc1)OCC
inactive: [1] 105% | [2] 88.8% | [3] 100% | [4] 112% | [5] 102% | [6] 103% | [7] 96.4% | [8] 107%

COC(=O)C1=C(C)O[P@](=O)(OC)CCC1c1ccccc1 (stereo partly specified)
inactive: [2] 102% | [3] 104% | [4] 113% | [5] 99.6% | [6] 91.7% | [7] 109% | [9] 95.6% | [8] 111%

CCN(CCCl)Cc1cccc2ccccc12
inactive: [1] 114% | [2] 96.7% | [4] 109% | [5] 98.4% | [6] 95.9% | [7] 103% | [9] 108% | [8] 104%

O=C1OCCN1P(=O)(Cl)N1CCOC1=O
inactive: [1] 98.5% | [2] 105% | [3] 110% | [4] 102% | [5] 102% | [6] 94.9% | [7] 97.9% | [8] 106%

O=[N+]([O-])c1ccc(SSc2ccc([N+](=O)[O-])cc2[N+](=O)[O-])c([N+](=O)[O-])c1
inactive: [1] 98.6% | [2] 88.4% | [3] 102% | [4] 106% | [5] 29% | [6] 95% | [7] 13.9% | [8] 106%

CCOC(=O)CCNCCSP(=O)(O)O
inactive: [2] 97.3% | [3] 101% | [4] 105% | [5] 102% | [6] 96.4% | [7] 101% | [9] 107% | [8] 98.9%
